# The entries are a selection whose mix differs from that of the whole data set. Some tests of the compounds listed are not included; inactive here does not mean inactive elsewhere. Calls of active or inactive are those of the source. Calls come from the whole dose curve; as a rule, active = well fitted inhibition curve with a large enough effect; inconclusive = small, poorly fitted or top-dose-only effect; inactive = no such curve, though single readings can be large or run the other way.
# Amino acid sequences for entries named in this document (tags omitted).
# UniProt Q14191, whole entry: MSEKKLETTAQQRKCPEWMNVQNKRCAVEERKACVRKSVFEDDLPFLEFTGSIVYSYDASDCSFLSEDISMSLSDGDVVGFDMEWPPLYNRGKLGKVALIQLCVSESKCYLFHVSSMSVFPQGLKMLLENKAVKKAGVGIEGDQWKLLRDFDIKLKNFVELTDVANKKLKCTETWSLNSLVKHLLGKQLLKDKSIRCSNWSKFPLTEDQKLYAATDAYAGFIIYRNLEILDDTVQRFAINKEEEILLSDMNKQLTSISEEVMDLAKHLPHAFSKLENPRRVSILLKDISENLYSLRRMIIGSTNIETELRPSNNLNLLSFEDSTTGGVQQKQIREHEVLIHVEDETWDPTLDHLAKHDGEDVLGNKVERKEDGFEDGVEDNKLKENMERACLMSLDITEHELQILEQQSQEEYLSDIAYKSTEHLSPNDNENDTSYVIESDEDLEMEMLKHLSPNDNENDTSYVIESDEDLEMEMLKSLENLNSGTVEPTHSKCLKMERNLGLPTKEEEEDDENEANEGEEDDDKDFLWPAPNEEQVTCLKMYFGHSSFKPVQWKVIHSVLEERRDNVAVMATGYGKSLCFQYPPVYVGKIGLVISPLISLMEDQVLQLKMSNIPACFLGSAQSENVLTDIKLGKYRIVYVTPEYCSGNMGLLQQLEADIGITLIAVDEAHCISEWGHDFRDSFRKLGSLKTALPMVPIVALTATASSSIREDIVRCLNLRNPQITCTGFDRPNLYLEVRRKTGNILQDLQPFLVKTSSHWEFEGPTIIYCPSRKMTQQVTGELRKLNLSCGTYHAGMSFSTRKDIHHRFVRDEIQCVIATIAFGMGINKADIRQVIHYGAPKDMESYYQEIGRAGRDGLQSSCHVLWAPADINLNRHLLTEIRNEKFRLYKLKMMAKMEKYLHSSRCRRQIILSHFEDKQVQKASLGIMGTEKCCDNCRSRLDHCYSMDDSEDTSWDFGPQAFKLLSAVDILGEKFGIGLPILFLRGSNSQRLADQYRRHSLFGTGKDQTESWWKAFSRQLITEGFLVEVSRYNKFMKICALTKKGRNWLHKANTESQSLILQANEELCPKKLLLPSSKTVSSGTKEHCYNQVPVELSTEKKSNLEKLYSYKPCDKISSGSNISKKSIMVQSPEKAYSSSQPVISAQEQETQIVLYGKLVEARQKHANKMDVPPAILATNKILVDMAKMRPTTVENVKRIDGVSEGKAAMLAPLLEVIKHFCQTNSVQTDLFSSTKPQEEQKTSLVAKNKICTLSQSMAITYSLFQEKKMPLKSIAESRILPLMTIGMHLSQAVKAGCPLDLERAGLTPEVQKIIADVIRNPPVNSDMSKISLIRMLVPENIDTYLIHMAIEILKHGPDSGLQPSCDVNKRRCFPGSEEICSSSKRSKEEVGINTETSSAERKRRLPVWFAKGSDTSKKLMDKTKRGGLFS
# Target: Bifunctional 3'-5' exonuclease/ATP-dependent helicase WRN (Homo sapiens) (UniProt Q14191)
# Assay: qHTS for Inhibitors of WRN Helicase; note: nearly all actives have a fitted effect of over 55% in size
# Conditions: WRN helicase unwinding, fluorescent forked duplex, kinetic; at 114 µM (top of the series)
# From the text: Inhibition of DNA repair is proposed as a strategy for combating cancer. Synthetic lethality is an approach that exploits preexisting DNA repair deficiencies in certain tumors to develop inhibitors of DNA repair pathways that compensate for the tumor-associated DNA repair deficiency. Because helicases play critical roles in the DNA damage response and in DNA repair, particularly in actively dividing and replicating cells, characterization of synthetic lethal relationships of DNA helicases may be of value in developing improved anticancer treatment strategies; moreover, small molecules that specifically target a given DNA helicase may be useful for understanding its role in cellular nucleic acid metabolism. The goal of this project is to identify small molecule, non-covalent chemical inhibitors of the Werner syndrome (WS) helicase (WRN), which plays an important role in cell proliferation, the replication stress response, and DNA repair. […] The WRN gene product that is defective in the chromosomal instability disorder has DNA helicase and exonuclease activities and interacts with a number of nuclear proteins to maintain genomic stability. We will employ an optimized high-throughput screening assay that utilizes a fluorescence intensity modulation scheme with a fluorophore and quencher positioned near one another within a duplex deoxyoligonucleotide that contains a single forked structure. After a high-throughput screen of the ~350,000-member Molecular Libraries Small Molecule Repository (MLSMR) collection, followed by data analysis and hit selection, a panel of confirmatory, as well as secondary and ternary, assays will be employed to identify high-confidence WRN inhibitors. Structure-activity relationships will be investigated for the top candidate inhibitor series through medchem expansion. These are the results of the primary screening campaign against the MLSMR. NIH Chemical Genomics Center [NCGC] NIH Molecular Libraries Probe Centers Network [MLPCN] MLPCN Grant: MH096530 Assay Submitter (PI): Robert Brosh, National Institute of Aging
# Three muL of reagents (buffer in columns 3 and 4 as negative controls; WRN at 20 nM final concentration in columns 1 and 2 as positive controls; columns 5-48 as test reactions) will be dispensed into a 1536-well Greiner black plate via solenoid-valve based nanoliter dispensers. Compounds (23 nL each in columns 5-48) and control (23 nL each in column 2 as dose-response) will be transferred via a Kalypsys pintool equipped with a 1536-pin array. Plates will be incubated for 15 min at room temperature, and then 1 µL of substrate (100 nM forked duplex oligonucleotide and 2 mM ATP final concentrations) will be added to start reaction, and plate will be transferred into a ViewLux high-throughput CCD imager where reaction progress is measured in kinetic mode using standard red-fluorescence optics (excitation filter 525 nm, emission filter 598 nm).
# % is set by controls: 0 for no effect and ±100 for the full control effect.
row,Compound,"activity change, negative = inhibition"
1,COc1cc(C(=O)NCC2(N(C)C)CCCCC2)c([N+](=O)[O-])cc1OC,inactive: -0.768%
2,CN(C)C1(CNC(=O)c2ccc(Br)cc2)CCCCC1,inactive: 15.3%
3,O=C(NCC1(N2CCCCC2)CCCCC1)c1cccc(Cl)c1,inactive: -9.85%
4,COc1cccc(C(=O)NCC2(N3CCCCC3)CCCCC2)c1,inactive: -1.18%
5,COc1ccc(Cl)cc1C(=O)NCC1(N(C)C)CCCCC1,inactive: 7.66%
6,O=C(OC1CN2CCC1CC2)C(CO)(c1ccccc1)c1ccccc1 (stereo not given),inactive: -5.96%
7,CC(C)Oc1ccc(C(=O)NCC2(N(C)C)CCCCC2)cc1,inactive: 1.63%
8,O=C(OCCN1CCCC1)C(O)(c1ccccc1)c1ccccc1,inactive: -18.2%
9,CN(C)c1cccc(C(=O)NCC2(N(C)C)CCCCC2)c1,inactive: 5.55%
10,C=C(C)C#CC(O)(C(=O)OC1CCN(C)CC1)c1ccccc1 (stereo not given),inactive: 2.14%
11,COc1ccc(Br)c(C(=O)NCC2(N3CCCCC3)CCCCC2)c1,inactive: -0.681%
12,CN1[C@@H]2CC[C@H]1CC(OC(=O)C(O)(c1ccccc1)c1ccccc1)C2 (stereo not given in full),inactive: 0.8%
13,O=C(NCC1(N2CCCCC2)CCCCC1)c1cc([N+](=O)[O-])ccc1Cl,inactive: 6.27%
14,CCN(CC)CC(C)C(C)OC(=O)C(O)(c1ccccc1)c1ccccc1 (stereo not given),inactive: -3.94%
15,COc1cc(SC)ccc1C(=O)NCC1(N(C)C)CCCCC1,inactive: 0.134%
16,CC(C)N1C(=O)CC2(CCN(CCOC(=O)C(O)(c3ccccc3)c3ccccc3)CC2)C1=O,inactive: -2.24%
17,Cc1ccccc1C(=O)NCC1(N2CCCCC2)CCCCC1,inactive: 1.49%
18,CN(C)c1ccc(C(=O)NCC2(N(C)C)CCCCC2)cc1,inactive: -6.35%
19,CN(C)C1CCCC1OC(=O)C(O)(c1ccccc1)c1ccccc1 (stereo not given),inactive: -6.16%
20,COc1ccc(C(=O)NCC2(N(C)C)CCCCC2)cc1,inactive: 2.61%
21,CCN1CCCC(OC(=O)C2(O)c3ccccc3C=Cc3ccccc32)C1 (stereo not given),inactive: -5.21%
22,Cc1cc(C(=O)NCC2(N3CCCCC3)CCCCC2)ccc1[N+](=O)[O-],inactive: 10.5%
23,O=C(NCC1(N2CCCCC2)CCCCC1)c1cccc(Br)c1,inactive: -9.36%
24,C=CCN1CCN(CCOC(=O)C(O)(c2ccccc2)c2ccccc2)CC1,inactive: 9.51%
25,O=C(NCC1(N2CCCCC2)CCCCC1)c1cc(F)c(F)cc1Cl,inactive: 0.0808%
